Test results taken from article PMC9826610 (Journal of medicinal chemistry, 2022).

System: sheep erythrocytes
Conditions: sheep erythrocyte CC50 versus S. aureus MIC

## O=c1cc(C(F)(F)F)[nH]c2cc(C(F)(F)F)cc(Nc3ccc(C(F)(F)F)cn3)c12 [Compound 111, 5-[(5-Trifluoromethylpyridin-2-yl)amino]-2,7-bis-(trifluoromethyl)quinolin-4(1H)-one]
  therapeutic index (CC50/MIC), selectivity for S. aureus membranes over erythrocyte membranes: greater than 500
